This is a selection; strong and weak results do not stand in their true shares. The source made the active and inactive calls.
assay: CREB reporter modulators without forskolin, primary screen, cell-based, PC12, CRE-LacZ reporter, unstimulated (AID 1145); settings: no forskolin, luminescence, 4.5 h, higher = more signal, called active from +8 up or from −8 down

Structure (SMILES) | z-score
COP(=O)(/N=C1/CC(c2ccc(CO)cc2)=CC(C2CC2)N1Cc1cc2c(cc1Br)OCO2)OC (stereo not given) | inactive: 6.21
O=P(/N=C1/CC(CCCO)=CC(C2CC2)N1Cc1sc2ccccc2c1Cl)(Oc1ccccc1)Oc1ccccc1 (stereo not given) | inactive: -0.0243
COP(=O)(/N=C1/CC(CCCO)=CC(c2ccc(CN3CCCC3)cc2)N1Cc1sc2ccccc2c1Cl)OC (stereo not given) | inactive: -1.21
O=P(/N=C1/CC(c2ccc(CO)cc2)=CC(C2CC2)N1Cc1sc2ccccc2c1Cl)(Oc1ccccc1)Oc1ccccc1 (stereo not given) | inactive: 0.462
CN1/C(=N\P(=O)(Oc2ccccc2)Oc2ccccc2)CC(CCCO)=CC1C1CC1 (stereo not given) | inactive: -0.761
O=P(/N=C1/CC(CCCO)=CC(c2ccc(CN3CCCC3)cc2)N1Cc1sc2ccccc2c1Cl)(Oc1ccccc1)Oc1ccccc1 (stereo not given) | inactive: 0.812
COP(=O)(/N=C1/CC(CCCO)=CC(c2cccs2)N1C)OC (stereo not given) | inactive: -0.96
COP(=O)(/N=C1/CC(CCCO)=CC(C2CC2)N1C)OC (stereo not given) | inactive: -0.163
COP(=O)(/N=C1/CC(CCCO)=CC(c2ccc(CN3CCCC3)cc2)N1C)OC (stereo not given) | inactive: 0.406
COP(=O)(/N=C1/CC(CCCO)=CC(C)N1Cc1cccc(OC(F)(F)F)c1)OC (stereo not given) | inactive: 0.755
COP(=O)(/N=C1/CC(CCCO)=CC(C2CC2)N1Cc1sc2ccccc2c1Cl)OC (stereo not given) | inactive: 0.378
COP(=O)(/N=C1/CC(c2ccc(CO)cc2)=CC(C2CC2)N1C)OC (stereo not given) | inactive: 0.48
O=P(/N=C1/CC(c2ccc(CO)cc2)=CC(C2CC2)N1Cc1cc2c(cc1Br)OCO2)(Oc1ccccc1)Oc1ccccc1 (stereo not given) | inactive: 0.0655
O=P(/N=C1/CC(c2ccc(CO)cc2)=CC(c2cccs2)N1Cc1cccc(OC(F)(F)F)c1)(Oc1ccccc1)Oc1ccccc1 (stereo not given) | inactive: -0.141
COP(=O)(/N=C1/CC(c2ccc(CO)cc2)=CC(c2cccs2)N1C)OC (stereo not given) | inactive: 1.04
CN1/C(=N\P(=O)(Oc2ccccc2)Oc2ccccc2)CC(CCCO)=CC1c1ccc(CN2CCCC2)cc1 (stereo not given) | inactive: 0.272
O=P(/N=C1/CC(CCCO)=CC(c2cccs2)N1Cc1cc2c(cc1Br)OCO2)(Oc1ccccc1)Oc1ccccc1 (stereo not given) | inactive: 0.245
COP(=O)(/N=C1/CC(CCCO)=CC(c2ccc(CN3CCCC3)cc2)N1Cc1cccc(OC(F)(F)F)c1)OC (stereo not given) | inactive: -0.466
CN1/C(=N\P(=O)(Oc2ccccc2)Oc2ccccc2)CC(c2ccc(CO)cc2)=CC1c1cccs1 (stereo not given) | inactive: -0.141
COP(=O)(/N=C1/CC(c2ccc(CO)cc2)=CC(C2CC2)N1Cc1sc2ccccc2c1Cl)OC (stereo not given) | inactive: 2.67
COP(=O)(/N=C1/CC(CCCO)=CC(C2CC2)N1Cc1cc2c(cc1Br)OCO2)OC (stereo not given) | inactive: -0.611
CN1/C(=N\P(=O)(Oc2ccccc2)Oc2ccccc2)CC(CCCO)=CC1c1cccs1 (stereo not given) | inactive: 3.69
COP(=O)(/N=C1/CC(CCCO)=CC(C2CC2)N1Cc1cccc(OC(F)(F)F)c1)OC (stereo not given) | inactive: -0.219
O=P(/N=C1/CC(CCCO)=CC(C2CC2)N1Cc1cc2c(cc1Br)OCO2)(Oc1ccccc1)Oc1ccccc1 (stereo not given) | inactive: 2.81
COP(=O)(/N=C1/CC(CCCO)=CC(c2ccc(CN3CCCC3)cc2)N1Cc1cc2c(cc1Br)OCO2)OC (stereo not given) | inactive: -0.102
O=P(/N=C1/CC(CCCO)=CC(c2ccc(CN3CCCC3)cc2)N1Cc1cc2c(cc1Br)OCO2)(Oc1ccccc1)Oc1ccccc1 (stereo not given) | inactive: -0.258
CC1C=C(CCCO)C/C(=N/P(=O)(Oc2ccccc2)Oc2ccccc2)N1Cc1cccc(OC(F)(F)F)c1 (stereo not given) | inactive: 6.8
O=P(/N=C1/CC(CCCO)=CC(c2cccs2)N1Cc1cccc(OC(F)(F)F)c1)(Oc1ccccc1)Oc1ccccc1 (stereo not given) | inactive: 0.209
CN1/C(=N\P(=O)(Oc2ccccc2)Oc2ccccc2)CC(c2ccc(CO)cc2)=CC1C1CC1 (stereo not given) | inactive: 1.76
O=P(/N=C1/CC(CCCO)=CC(C2CC2)N1Cc1cccc(OC(F)(F)F)c1)(Oc1ccccc1)Oc1ccccc1 (stereo not given) | inactive: 0.904

— PubChem BioAssay AID1145 (ChemBank, 2008)
